Test results from patent US20130310344A1, “N-ACYLSULFONAMIDE APOPTOSIS PROMOTERS” (ASTRAZENECA AB, priority 2010, published 2013).
Where a name gives a salt, the structure may show the parent alone.

Chains of the proteins cited; added tags and fusions are not shown. Residues count along the entry.
UniProt Q07817, 1-209: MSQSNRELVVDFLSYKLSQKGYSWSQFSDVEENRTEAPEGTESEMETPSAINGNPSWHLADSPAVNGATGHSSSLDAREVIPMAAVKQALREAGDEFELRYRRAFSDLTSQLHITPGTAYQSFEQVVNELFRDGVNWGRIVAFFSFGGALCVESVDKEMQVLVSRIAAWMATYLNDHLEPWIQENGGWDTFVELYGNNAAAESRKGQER
UniProt P10415, 1-204: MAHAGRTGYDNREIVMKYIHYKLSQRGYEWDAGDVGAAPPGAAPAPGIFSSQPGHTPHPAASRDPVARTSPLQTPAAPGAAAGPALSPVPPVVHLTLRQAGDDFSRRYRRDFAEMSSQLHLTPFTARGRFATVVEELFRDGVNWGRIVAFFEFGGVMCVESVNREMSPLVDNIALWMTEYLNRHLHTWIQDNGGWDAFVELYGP

What was measured:
Bcl-XL = molecular target: T1, Bcl-XL (Homo sapiens, UniProt Q07817); experiment: Bcl-XL FP assay (competitive fluorescence polarization binding assay, FITC-Bim BH-3 peptide tracer); conditions: C-terminal 6×HIS tagged Bcl-XL (aa 1-209), 0.8 nM; 2 nM FITC-Bim peptide tracer
T1 construct: a C-terminal 6×HIS tagged Bcl-XL (aa 1-209); 6xHis (C)
From the text: (§1) Bcl-xL and Bcl-2 FP binding affinity of compound(s) of Formulae (I), (I-a), (I-b), (I-c), (I-d) and/or (I-e) may be determined using a variety of known methods. One such assay is a sensitive and quantitative in vitro binding assay using fluorescence polarization (“FP”) described by Wang, J.-L.; Zhang, Z-J.; Choksi, S.; Sjam. S.; Lu, Z.; Croce, C. M.; Alnemri, E. S.; Komgold, R.; Huang, Z. Cell permeable Bcl-2 binding peptides: a chemical approach to apoptosis induction in tumor cells. Cancer Res. 2000, 60, 1498-1502).
(§2) Additionally, the binding affinity of compound(s) of Formulae (I), (I-a), (I-b), (I-c), (I-d) and/or (I-e) to Bcl-2 protein in vitro was determined by a competitive binding assay based on fluorescence polarization. For example, fluorescence polarization (“FP”) assays may be developed using a c-terminal 6×HIS tagged Bcl-2 (aa 1-204) and a C-terminal 6×HIS tagged Bcl-XL (aa 1-209). The tracer may be a synthetic peptide BH-3 peptide Bim conjugated to Fluorescein isothiocyanate (FITC—[…]). Dilutions of either Bcl-2 (1.3 nM) or Bcl-XL (0.8 nM) may be added to serial dilutions of antagonist and incubated for one hour prior to the addition of 2 nM of fluorescent peptide tracer (Anaspec, Fremont, Calif.) in the assay buffer. Final assay buffer conditions may be 20 mM HEPES, pH 7.5, 1 mM DTT, 0.005% Tween-20 and 50 mM NaCl. Samples may be read after 20-minute incubation. Fluorescence polarization values may be plotted as a function of the antagonist concentration.
(§3) When tested in an FP assay based on the FP assay described above, the inhibitory activity of the following examples were measured at the IC50s (μM) shown in Table 1.

Bcl-2 = molecular target: T2, Bcl-2 (Homo sapiens, UniProt P10415); experiment: Bcl-2 FP assay (competitive fluorescence polarization binding assay, FITC-Bim BH-3 peptide tracer); conditions: c-terminal 6×HIS tagged Bcl-2 (aa 1-204), 1.3 nM; 2 nM FITC-Bim peptide tracer
T2 construct: a c-terminal 6×HIS tagged Bcl-2 (aa 1-204); 6xHis (C)
From the text: as §1, §2, §3

IC50 (Bcl-XL) [nM] | IC50 (Bcl-2) [nM] | Compound
0.5 | 0.4 | CCN(CC)CC1CN(CC[C@H](CSc2ccccc2)Nc2ccc(S(=O)(=O)NC(=O)c3ccc(N4CCC([C@@H](O)c5ccccc5-c5ccc(Cl)cc5)CC4)cc3)cc2S(=O)(=O)C(F)(F)F)CCO1 (single isomer, unassigned) [Example 26]
2 | 7 | N#C[C@@H](c1ccccc1-c1ccc(Cl)cc1)C1CCN(c2ccc(C(=O)NS(=O)(=O)c3ccc(N[C@H](CCN4CCOCC4)CSc4ccccc4)c(S(=O)(=O)C(F)(F)F)c3)cc2)CC1 [Example 18, 4-(4-((R)-(4′-chlorobiphenyl-2-yl)(cyano)methyl)piperidin-1-yl)-N-(4-((R)-4-morpholino-1-(phenylthio)butan-2-ylamino)-3-(trifluoromethylsulfonyl)phenylsulfonyl)benzamide]
8 | 1200 | N#C[C@H](c1ccccc1-c1ccc(Cl)cc1)C1CCN(c2ccc(C(=O)NS(=O)(=O)c3ccc(N[C@H](CCN4CCOCC4)CSc4ccccc4)c(S(=O)(=O)C(F)(F)F)c3)cc2)CC1 [Example 19, 4-(4-((S)-(4′-chlorobiphenyl-2-yl)(cyano)methyl)piperidin-1-yl)-N-(4-((R)-4-morpholino-1-(phenylthio)butan-2-ylamino)-3-(trifluoromethylsulfonyl)phenylsulfonyl)benzamide]

Compound | IC50 (Bcl-XL) [nM] | IC50 (Bcl-2) [nM]
O=C(NS(=O)(=O)c1ccc(N[C@H](CCN2CCOC[C@H]2CO)CSc2ccccc2)c(S(=O)(=O)C(F)(F)F)c1)c1ccc(N2CCC([C@@H](O)c3ccccc3-c3ccc(Cl)cc3)CC2)cc1 [Example 24, 4-(4-((R)-(4′-chlorobiphenyl-2-yl)(hydroxy)methyl)piperidin-1-yl)-N-(4-((R)-4-((R)-3-(hydroxymethyl)morpholino)-1-(phenylthio)butan-2-ylamino)-3-(trifluoromethylsulfonyl)phenylsulfonyl)benzamide, formic acid salt] | 2 | –
O=C(NS(=O)(=O)c1ccc(N[C@H](CCN2CCOC[C@@H]2CO)CSc2ccccc2)c(S(=O)(=O)C(F)(F)F)c1)c1ccc(N2CCC([C@@H](O)c3ccccc3-c3ccc(Cl)cc3)CC2)cc1 [Example 25, 4-(4-((R)-(4′-chlorobiphenyl-2-yl)(hydroxy)methyl)piperidin-1-yl)-N-(4-((R)-4-((S)-3-(hydroxymethyl)morpholino)-1-(phenylthio)butan-2-ylamino)-3-(trifluoromethylsulfonyl)phenylsulfonyl)benzamide, hydrochloride salt] | 2 | –
